Source: ChEMBL document CHEMBL1287705, “Design and synthesis of threading intercalators to target DNA” (Bioorg Med Chem Lett, 2010)

Each compound was assayed on Calf thymus DNA (assay: Displacement of ethidium bromide from calf thymus DNA by fluorometric assay). Conditions: Bos taurus.
Format: nucleic-acid assay

SMILES | logKA
CN(C)CCNC(=O)c1cccc2c(NCCCCCCNC(=O)c3cccc4ccccc34)c3ccccc3nc12 | 6.72
CN(C)CCNC(=O)c1ccc2c(NCCCCCCNC(=O)c3cccc4ccccc34)c3ccccc3nc2c1 | 6.22
CN(C)CCNC(=O)c1cccc2c(NCCCCCCNC(=O)c3ccc4ccccc4n3)c3ccccc3nc12 | 6.68
CN(C)CCNC(=O)c1ccc2c(NCCCCCCNC(=O)c3ccc4ccccc4n3)c3ccccc3nc2c1 | 6.43
